Tests used:
[1] = biological target: anti-BACE1 hIgG1 Q311A / M428L / N434Y (human); assay: SPR
[2] = biological target: anti-BACE1 hIgG1 T18 (Q311A / M428L / N434Y) (human); assay: SPR

Protein sequences, listed by entry. Tags and fused reporters are not part of them. Residues count along the entry.
UniProt P55899, 24-365: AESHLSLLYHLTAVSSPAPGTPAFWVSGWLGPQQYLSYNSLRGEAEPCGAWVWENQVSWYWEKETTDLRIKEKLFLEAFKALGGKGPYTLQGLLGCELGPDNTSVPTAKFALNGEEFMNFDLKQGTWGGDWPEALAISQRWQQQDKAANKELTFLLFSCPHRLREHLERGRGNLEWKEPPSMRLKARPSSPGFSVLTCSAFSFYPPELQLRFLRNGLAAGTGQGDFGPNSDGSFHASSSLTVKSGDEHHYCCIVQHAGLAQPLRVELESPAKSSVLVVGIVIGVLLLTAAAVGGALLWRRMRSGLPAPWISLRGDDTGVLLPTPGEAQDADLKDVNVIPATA

Kd [1]: 0.159 µM
Kd [2]: 0.159 µM
Substance: human neonatal Fc receptor (hFcRn) (from UniProt P55899 24-365; P61769 21-119)

From publication PMC12049489
